Experiment: Maraviroc release rate by Rapid Equilibrium Dialysis (RED)
Format: physicochemical
Details: 8 kDa MWCO, 6 h, 37° C., pH 7.4, oil-blended SDNs with Vitamin E
Procedure: The rate of maraviroc release from the three maraviroc oil-blended SDN formulations found to most reliably and reproducibly produce nanodispersions in Example 6 was assessed across a size selective (8 kDa MWCO) membrane using RED plates and inserts. Control experiments were also run testing the rate of maraviroc release from aqueous maraviroc and a conventional maraviroc SDN
(ACS_14-70 wt % maraviroc; 20 wt % PVA; and 10 wt % AOT as described in 2). Transport buffer (TB—consisting of Hanks balanced salt solution, 25 mM HEPES and 0.1% Bovine Serum Albumin (BSA), pH 7.4) was spiked with either DMSO dissolved maraviroc (<5% DMSO), a conventional maraviroc SDN or a maraviroc oil-blended SDN. A total of 1 mg maraviroc was added to the donor compartments for each preparation in 0.1 ml dH2O with an additional 0.5 ml of TB added to the donor chambers. One-millilitre of TB was subsequently added to the corresponding acceptor chambers. The RED plates were sealed using Parafilm to avoid evaporation and placed on an orbital shaker (Heidolph Rotomax 120; 100 rpm, 6 h, 37° C.). […] Collected samples were analysed via HPLC.
Rapid equilibrium dialysis was performed as per Example 7. The compositions correspond to those found to form successful nanodispersions in Examples 8, 9 and 10. The data is also plotted as a bar graph in FIG. 14.

Substance: maraviroc [Aqueous maraviroc]
- Rate of maraviroc release: 0.2491 h

From patent publication US20210361639A1, “SOLID COMPOSITIONS OF ACTIVES, PROCESSES FOR PREPARING SAME AND USES OF SUCH SOLID COMPOSITIONS” (The University of Liverpool, priority 2018, published 2021)
